Assay [1] deals with PDE4B2 (Homo sapiens (Human), UniProt Q07343). As to the kind of experiment: Effect of compounds on PDE4B2 activity (fluorescence polarization kit). Particulars: read-out: PDE4B2 IC50.
The target in assay [2] is PDE4D2 (Homo sapiens (Human), UniProt Q08499). As to the kind of experiment: Effect of compounds on PDE4D2 activity (fluorescence polarization kit). In kind it is biochemical. Here is the method: FP was usually represented by mP value.
[formula] • I∥ (S520): fluorescence intensity in parallel direction • I⊥ (P520): fluorescence intensity in perpendicular direction • G: G factor=1
[formula] • mP(sample): mP of the test compound in a reaction well • mP(negative control): mP in the negative control well • mP(positive control): mP in the positive control well
According to the calculated inhibition rate at each concentration, the IC50 value of each compound was calculated by GraphPad Prism 8 software.
(Fluorescence polarisation rises when a labelled molecule tumbles more slowly, as on binding a larger partner.)

By UniProt entry, the sequences of proteins in these tests, tags left out. Chains listed by the source or under a name are the forms on record and can include a tag or linker. Residues count along the entry.
UniProt Q07343, other isoform, or with tags, fused parts or gaps: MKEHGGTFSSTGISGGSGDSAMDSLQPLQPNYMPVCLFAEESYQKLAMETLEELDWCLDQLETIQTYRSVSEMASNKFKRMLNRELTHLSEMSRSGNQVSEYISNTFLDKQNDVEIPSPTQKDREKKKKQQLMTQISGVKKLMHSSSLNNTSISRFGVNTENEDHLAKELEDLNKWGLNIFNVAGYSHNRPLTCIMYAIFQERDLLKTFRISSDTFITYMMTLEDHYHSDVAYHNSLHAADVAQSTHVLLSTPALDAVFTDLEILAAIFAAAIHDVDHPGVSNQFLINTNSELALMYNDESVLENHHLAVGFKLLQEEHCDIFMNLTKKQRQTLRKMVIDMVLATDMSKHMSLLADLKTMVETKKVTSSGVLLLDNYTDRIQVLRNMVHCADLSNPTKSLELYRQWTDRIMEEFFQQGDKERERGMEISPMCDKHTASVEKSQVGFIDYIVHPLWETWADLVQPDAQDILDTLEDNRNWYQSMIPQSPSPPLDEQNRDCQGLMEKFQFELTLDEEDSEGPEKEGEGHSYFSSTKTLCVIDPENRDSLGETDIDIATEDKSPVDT
UniProt Q08499, 303-809, stated change not applied: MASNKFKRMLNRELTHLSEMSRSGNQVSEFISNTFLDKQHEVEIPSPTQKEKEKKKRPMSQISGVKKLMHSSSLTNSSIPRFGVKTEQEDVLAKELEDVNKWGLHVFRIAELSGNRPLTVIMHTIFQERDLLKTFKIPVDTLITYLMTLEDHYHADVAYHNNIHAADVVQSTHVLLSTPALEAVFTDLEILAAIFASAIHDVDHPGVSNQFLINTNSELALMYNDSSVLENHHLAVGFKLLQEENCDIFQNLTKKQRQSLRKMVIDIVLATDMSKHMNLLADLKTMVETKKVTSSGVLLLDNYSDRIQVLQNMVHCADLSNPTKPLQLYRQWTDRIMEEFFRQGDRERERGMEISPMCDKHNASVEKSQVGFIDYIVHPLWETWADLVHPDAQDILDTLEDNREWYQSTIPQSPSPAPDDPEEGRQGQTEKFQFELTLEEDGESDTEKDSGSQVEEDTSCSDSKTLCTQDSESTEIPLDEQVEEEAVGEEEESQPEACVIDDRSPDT

A value given as a limit tells only on which side of the number the result lay.

On to `CC#Cc1cnc(C2=CCN(c3nc4c(c(NC(C)(C)COC(N)=O)n3)[S+]([O-])CC4)CC2)nc1` (single isomer, unassigned) [Compound 110-1], for which the IC50 in assay [1] and in assay [2] was below 10 nM in each case.

With `CC#Cc1cnc(C2=CCN(c3nc4c(c(NC(C)(C)COC(N)=O)n3)[S+]([O-])CC4)CC2)nc1` (single isomer, unassigned) [Compound 110-2], the IC50 (usually the point on the concentration scale where inhibition reaches its midpoint) was below 10 nM in assay [1] and 10 to 50 nM in assay [2].

Regarding `NC(=O)OCC1(Nc2nc(N3CC=C(c4ncc(C5CC5)cn4)CC3)nc3c2[S@+]([O-])CC3)CCC1` [Compound 47], in assay [1], the IC50 is below 10 nM.

`CC#Cc1cnc(C2=CCN(c3nc4c(c(NC5(COC(F)F)CCC5)n3)[S@+]([O-])CC4)CC2)nc1` [Compound 92-1]: the IC50 in assay [1] was below 10 nM.

With `CC#Cc1cnc(C2=CCN(c3nc4c(c(NC5(COC(F)F)CCC5)n3)[S@@+]([O-])CC4)CC2)nc1` [Compound 92-2], the IC50 in assay [1] was below 10 nM.

On to `CC(C)(COC(N)=O)Nc1nc(N2CCC=C(c3ncc(Cl)cn3)CC2)nc2c1[S@+]([O-])CC2` [Compound 102-1], for which the IC50 in assay [1] is 10 to 50 nM; in assay [2], 50 to 100 nM.

On to `CC(C)(COC(N)=O)Nc1nc(N2CCC=C(c3ncc(Cl)cn3)CC2)nc2c1[S@@+]([O-])CC2` [Compound 102-2], for which the IC50 in assay [1] and in assay [2] was below 10 nM each time.

Source of the values: patent US20250263426A1, “PDE4B INHIBITOR AND USE THEREOF” (Xizang Haisco Pharmaceutical Co., Ltd., priority 2022, published 2025).
